# Antibody variant affinities, Ab-14 light chain, assay 1

From the AlphaSeq antibody data of Engelhart et al. 2022 (doi:10.1038/s41597-022-01779-4), copy in the FLAb collection.

The target is the same throughout: PDVDLGDISGINAS, from the HR2 region of SARS-CoV-2 spike.

Each scFv is VH, three GGGGS repeats, VL, as in the parent Ab-14, and differs from it in the CDRs of the light chain only.
VH: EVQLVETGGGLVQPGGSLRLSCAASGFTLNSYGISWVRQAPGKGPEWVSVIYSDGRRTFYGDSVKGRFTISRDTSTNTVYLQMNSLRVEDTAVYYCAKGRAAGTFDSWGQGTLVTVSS
VL: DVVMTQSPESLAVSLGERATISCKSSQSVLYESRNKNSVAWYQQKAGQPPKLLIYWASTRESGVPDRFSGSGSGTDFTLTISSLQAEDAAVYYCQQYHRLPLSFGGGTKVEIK

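Library AAYL50 holds single substitutions and randomly drawn double and triple substitutions in the CDRs. AlphaSeq pools MATa yeast showing the antibodies with MATalpha yeast showing the peptide. Pairs that bind mate more often; barcode pairs of the diploids are counted by sequencing. Read counts were normalised to the haploid input and turned into Kd by a linear fit to BCL2-family pairs of known affinity, for each replicate. The assay was run in three technical replicates.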

Changes read parent residue, position, new residue, counted from the first residue of the VL shown. Scale: log10 of Kd in nM, estimated from mating counts; low values are strong binders. Averages over replicates are reported, and they cover detected replicates only. "nd" marks a missing value. The strain was present, yet no cells mated with the target were sequenced in that replicate, which points to weak or no binding. Parent in this assay: reference entry 0.65, copy in this library 1.68. Three control strains display no target. For library AAYL50, 18% of the pairings with them gave a signal, with a median of 4.19 and one signal in twenty below 2.99, so weak values seen in few replicates may be background. Also given: how often the same scFv was detected with the empty control strains, with their mean in brackets.

changes	log10 Kd (nM) by replicate	mean, log10 nM	signal with controls
N35D+A57V+E61T	1.65 / 2.04 / 1.84	1.84	0/9
R60P+R99I+L100N	1.81 / 1.74 / 2.26	1.94	4/9 (4.54)
S33G+S58G+L100Y	1.28 / 1.25 / 1.28	1.27	2/9 (3.94)
S28Y+N37E+S103Y	3.26 / 2.95 / 3.15	3.12	2/9 (5.63)
N35I+T59R+S62F	2.38 / 2.57 / 3.53	2.83	0/9
K36P+W56R+R60D	nd / nd / nd	nd	2/9 (4.09)
N37D+A57E+Q96N	nd / nd / nd	nd	0/9
N35C+R99T+P101V	nd / nd / nd	nd	0/9
S28C+W56E+T59H	0.83 / 1.06 / 1.02	0.97	4/9 (5.01)
T59W+Q96P+L102F	4.89 / nd / nd	4.89	5/9 (5.07)
N35G+S38P+A40V	4.15 / 3.38 / nd	3.77	3/9 (4.75)
S25H+S38H+Q95C	1.48 / 1.45 / 1.50	1.48	1/9 (2.85)
S25Y+S28K+S58Q	1.45 / 1.50 / 1.14	1.36	1/9 (4.51)
L30K+H98W+P101R	2.69 / 2.22 / 2.45	2.45	3/9 (4.49)
E32A+R60M+P101S	2.32 / 2.56 / nd	2.44	1/9 (3.19)
N35S+H98V+L100M	2.41 / 2.25 / 2.38	2.35	1/9 (4.73)
Q27C+R34V+L102E	nd / nd / nd	nd	0/9
S25W+N37M+L100C	2.27 / 2.09 / 2.06	2.14	7/9 (4.41)
L30F+A40S+L100C	nd / nd / nd	nd	1/9 (4.80)
N37A+R60T+E61F	nd / 2.94 / 4.71	3.82	1/9 (2.64)
V29S+Q95W+H98R	nd / nd / nd	nd	0/9
S28H+Q96H+L102G	nd / nd / nd	nd	0/9
Q27V+A40S+Q95N	nd / nd / nd	nd	1/9 (4.50)
K24P+E61M+R99Q	1.47 / 1.87 / 1.68	1.67	1/9 (2.67)
L30T+S58I+E61D	nd / nd / nd	nd	2/9 (4.02)
K24Y+N35H+T59I	nd / nd / nd	nd	1/9 (3.74)
S26Y+S28D+L100A	nd / nd / nd	nd	3/9 (3.79)
S25F+T59L+E61L	0.37 / 0.76 / 0.51	0.55	1/9 (3.73)
N37M+H98Q+P101D	0.99 / 1.42 / 1.31	1.24	1/9 (2.65)
A40C+Y97C+L100N	nd / nd / nd	nd	0/9
S26P+K36W+P101Y	nd / nd / nd	nd	1/9 (3.38)
Y97W+H98E+S103N	4.95 / nd / 2.86	3.91	3/9 (4.03)
Q27P+S38W+S62D	2.27 / 1.93 / 2.63	2.28	3/9 (4.03)
N35H+S62C+Y97V	nd / nd / 5.94	5.94	3/9 (3.92)
S58P+Y97R+H98N	nd / nd / nd	nd	3/9 (3.77)
V29H+A40L+R60V	nd / nd / nd	nd	0/9
E32L+N35C+E61S	1.99 / 2.17 / 4.10	2.75	0/9
K24C+S28Y+K36A	nd / nd / 2.39	2.39	0/9
R60P+S62C+P101Y	4.83 / nd / nd	4.83	1/9 (3.94)
K24L+E32G+L102S	nd / 4.75 / 4.68	4.72	2/9 (4.49)
S33C+N37T+S38K	5.67 / nd / nd	5.67	1/9 (4.10)
S26P+A40F+P101M	nd / nd / nd	nd	6/9 (4.45)
E61Y	1.01 / 1.08 / 1.09	1.06	2/9 (4.60)
S33I+V39P+R60F	nd / nd / nd	nd	1/9 (3.50)
S33E+N35Q+Y97L	1.12 / 1.26 / 1.43	1.27	2/9 (4.04)
N37S+A40M+L100F	4.34 / 3.98 / nd	4.16	5/9 (4.11)
N35P	3.17 / 1.89 / 2.10	2.39	1/9 (2.01)
V29E+L100I+S103E	0.98 / 1.08 / 0.95	1.00	0/9
K24Q+E32I+E61T	nd / nd / nd	nd	0/9

Picked from the list: the 8 lowest averages where every replicate gave a value.

changes	log10 Kd (nM) by replicate	mean, log10 nM	signal with controls
S25F+T59L+E61L	0.37 / 0.76 / 0.51	0.55	1/9 (3.73)
S28C+W56E+T59H	0.83 / 1.06 / 1.02	0.97	4/9 (5.01)
V29E+L100I+S103E	0.98 / 1.08 / 0.95	1.00	0/9
E61Y	1.01 / 1.08 / 1.09	1.06	2/9 (4.60)
N37M+H98Q+P101D	0.99 / 1.42 / 1.31	1.24	1/9 (2.65)
S33E+N35Q+Y97L	1.12 / 1.26 / 1.43	1.27	2/9 (4.04)
S33G+S58G+L100Y	1.28 / 1.25 / 1.28	1.27	2/9 (3.94)
S25Y+S28K+S58Q	1.45 / 1.50 / 1.14	1.36	1/9 (4.51)